How the values were obtained:
HLA-A*0301 = biological target: T1, HLA-A*0301 (Homo sapiens, UniProt P04439); test: HLA class I peptide binding assay; conditions: Malaria A03 supermotif peptides; binding value, no unit given
T1 construct: endogenous in cells; host or cells: GM3107

Chains of the proteins cited; added tags and fusions are not shown. Residues count along the entry.
UniProt Q30154, 30-266: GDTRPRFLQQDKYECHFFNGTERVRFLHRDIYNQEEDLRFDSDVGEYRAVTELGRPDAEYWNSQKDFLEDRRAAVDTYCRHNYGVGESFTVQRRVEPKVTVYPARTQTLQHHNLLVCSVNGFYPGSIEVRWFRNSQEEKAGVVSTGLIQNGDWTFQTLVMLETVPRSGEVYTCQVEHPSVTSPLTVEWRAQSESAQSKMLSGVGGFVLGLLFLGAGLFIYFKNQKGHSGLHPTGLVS

HLA-A*0201 = HLA-A*0201 (Homo sapiens, UniProt P04439, D140Y/D185E/D98H/E176V/E277Q/G131W/G231S/I119V/I121R/I166T/I218V/L300P/L318F/N151K/N90K/P208A/P217A/Q86G/Q94H/R138H/R169H/T345S); test: HLA class I peptide binding assay; conditions: Malaria A02 motif peptides, Table VIII; unit not given
DRB1*0101 (DR1) = biological target: T2, DRB1*0101 (DR1) (Homo sapiens, UniProt P01903+P01911, A100R/D57E/F55L/F60I/F76Y/I96L/L162R/M171V/P40L/Q125E/R42F/V115G/Y59C); test: HLA class II peptide binding assay; conditions: for DR1 binding data: Table XIXb, Malaria Super Motif Peptides With Binding Data
T2 construct: endogenous in cells; host or cells: LG2

DRB1*0301 (DR3) = biological target: T3, DRB1*0301 (DR3) (Homo sapiens, UniProt P01903+P01911, A100K/A102G/A103R/A169T/F55Y/I96L/K41T/L162R/M171V/P40S/Q125H/Q178H/Q39Y/R42S/S66N/T106N/T262R/W38E/Y61H); test: HLA class II peptide binding assay (pH 4.5); conditions: for DR3 binding data: Table XIXb
T3 construct: endogenous in cells; host or cells: MAT

DRB1*0401 (DR4w4) = biological target: T4, DRB1*0401 (DR4w4) (Homo sapiens, UniProt P01903+P01911, A100K/A169T/F76Y/I96L/K127E/L162R/M171V/N62H/P40V/Q125Y/R42H/S133A/S149N/S66Y/V115G/V209L/W38E); test: HLA class II peptide binding assay; conditions: for DR4w4 binding data: Table XIXb
T4 construct: endogenous in cells; host or cells: Preiss

DRB1*0405 (DR4w15) = biological target: T5, DRB1*0405 (DR4w15) (Homo sapiens, UniProt P01903+P01911, A100R/A169T/D86S/F76Y/I96L/K127E/L162R/M171V/N62H/P40V/Q125Y/R42H/S133A/S149N/S66Y/V115G/V209L/W38E); test: HLA class II peptide binding assay; conditions: for DR4w15 binding data: Table XIXb
T5 construct: endogenous in cells; host or cells: KT3

DRB1*0701 (DR7) = biological target: T6, DRB1*0701 (DR7) (Homo sapiens, UniProt P01903+P01911, A100R/A102G/A103Q/D57E/D86V/E43K/F76Y/K127E/L162R/M171V/P40G/Q125H/Q99D/R33Q/R42Y/R54Q/S133A/S66F/T210M/V115G/Y107V/Y59L/Y89S); type: binding
T6 construct: endogenous in cells; host or cells: Pitout

DRB1*0802 (DR8w2) = biological target: T7, DRB1*0802 (DR8w2) (Homo sapiens, UniProt P01903+P01911, A100R/A103L/A169T/F76Y/H45Y/I96F/K41T/L162R/M171V/P40S/Q125H/Q178H/Q39Y/Q99D/R218S/R42G/S66Y/V115G/W38E); type: binding
T7 construct: endogenous in cells; host or cells: OLL

DRB1*0901 (DR9) = biological target: T8, DRB1*0901 (DR9) (Homo sapiens, UniProt P01903+P01911, A100R/A103E/D57H/D86V/F55Y/F60I/F76Y/I96F/K127E/L162R/M171V/P40D/Q125H/Q99R/R33Q/R42F/S133A/S66N/T210M/V115G/W38K/Y107V/Y59G/Y89S); test: biochemical; type: binding
T8 construct: endogenous in cells; host or cells: HID

DRB1*1201 (DR5w12) = biological target: T9, DRB1*1201 (DR5w12) (Homo sapiens, UniProt P01903+P01911, A100R/A169T/D57E/D86V/F55L/H45Y/K41T/L162R/M171V/P40S/Q125H/Q178H/Q39Y/Q99D/R42G/S66L/T262R/V114A/V67L/W38E/Y59H/Y61H/Y89S); test: HLA class II peptide binding assay; conditions: for DR5w12 binding data: Table XIXb
T9 construct: endogenous in cells; host or cells: Herluf

DRB1*1302 (DR6w19) = biological target: T10, DRB1*1302 (DR6w19) (Homo sapiens, UniProt P01903+P01911, A100E/A169T/K41T/L162R/M171V/P40S/Q125H/Q178H/Q39Y/Q99D/R42S/S66N/T262R/V115G/W38E/Y61H); test: HLA class II peptide binding assay; conditions: for DR6w19 binding data: Table XIXb
T10 construct: endogenous in cells; host or cells: H0301

DRB1*1501 (DR2w2β1) = biological target: T11, DRB1*1501 (DR2w2β1) (Homo sapiens, UniProt P01903+P01911); test: HLA class II peptide binding assay; conditions: for DR2w2β1 binding data: Table XIXb
T11 construct: expressed in transfected cells; host or cells: L466.1 (fibroblasts)

DRB4*0101 (DRw53) = biological target: T12, DRB4*0101 (DRw53) (Homo sapiens, UniProt P01903+P13762, G164S); test: HLA class II peptide binding assay (pH 5.0); conditions: Table XIXb
T12 construct: expressed in transfected cells; host or cells: L257.6 (fibroblasts)

DRB5*0101 (DR2w2β2) = biological target: T13, DRB5*0101 (DR2w2β2) (Homo sapiens, UniProt P01903+Q30154); test: biochemical; type: binding
T13 construct: expressed in transfected cells; host or cells: L416.3 (fibroblasts) or GM3107

HLA-A*1101 = HLA-A*1101 (Homo sapiens, UniProt P04439, A114D/D185E/E176A/F33Y/L180Q/S129P/T187R); test: HLA class I peptide binding assay; conditions: Malaria A11 motif peptides, Table XVII; binding value for HLA-A*1101, unit not given
[1] = Malaria DR3b motif peptides, unit not given

NLLIGHINGK was tested. Which “A*301 (binding data)” value (HLA-A*0301) did it give?
Its value is 0.0049.

How did the “A*0201 (binding information)” value (HLA-A*0201) turn out when LVNLLIFHI was run?
Its value is 0.0006.

What about the DR1 binding data (DRB1*0101 (DR1)) of the same molecule?
Its DR1 binding data is 0.0018.

And the DR3 binding data (DRB1*0301 (DR3))?
The DR3 binding data was -0.008.

What about the DR4w4 binding data (DRB1*0401 (DR4w4)) of the same molecule?
Its DR4w4 binding data is 0.0160.

What about the DR4w15 binding data (DRB1*0405 (DR4w15)) of the same molecule?
Its DR4w15 binding data is 0.0027.

What about the DR7 binding data (DRB1*0701 (DR7)) of the same molecule?
The DR7 binding data was 0.0059.

And the DR8w2 binding data (DRB1*0802 (DR8w2))?
The DR8w2 binding data was 0.0005.

And the DR9 binding data (DRB1*0901 (DR9))?
The DR9 binding data was 0.0040.

What about the DR5w12 binding data (DRB1*1201 (DR5w12)) of the same molecule?
Its DR5w12 binding data is 0.0006.

What about the DR6w19 binding data (DRB1*1302 (DR6w19)) of the same molecule?
The DR6w19 binding data was 0.0013.

And the DR2w2β1 binding data (DRB1*1501 (DR2w2β1))?
The DR2w2β1 binding data was 0.0004.

What about the DRw53 binding data (DRB4*0101 (DRw53)) of the same molecule?
Its DRw53 binding data is 0.0290.

And the DR2w2β2 binding data (DRB5*0101 (DR2w2β2))?
The DR2w2β2 binding data was 0.0120.

With INGKIIKNS as the molecule, how does the DR1 binding data (DRB1*0101 (DR1)) read?
The DR1 binding data was 0.0320.

And the DR3 binding data (DRB1*0301 (DR3))?
Its DR3 binding data is 0.0120.

And the DR4w4 binding data (DRB1*0401 (DR4w4))?
Its DR4w4 binding data is -0.0007.

What about the DR4w15 binding data (DRB1*0405 (DR4w15)) of the same molecule?
The DR4w15 binding data was 0.0038.

And the DR7 binding data (DRB1*0701 (DR7))?
The DR7 binding data was 0.0150.

And the DR8w2 binding data (DRB1*0802 (DR8w2))?
Its DR8w2 binding data is 0.0400.

What about the DR5w12 binding data (DRB1*1201 (DR5w12)) of the same molecule?
The DR5w12 binding data was 0.0055.

And the DR6w19 binding data (DRB1*1302 (DR6w19))?
Its DR6w19 binding data is 0.0120.

And the DR2w2β1 binding data (DRB1*1501 (DR2w2β1))?
The DR2w2β1 binding data was 0.0220.

And the DRw53 binding data (DRB4*0101 (DRw53))?
The DRw53 binding data was 0.0020.

And the DR2w2β2 binding data (DRB5*0101 (DR2w2β2))?
The DR2w2β2 binding data was 0.0660.

Which “A*1101 (binding information)” value (HLA-A*1101) does the source give for LLIFHINGK here?
The value was 0.0100.

What about the DR1 binding data (DRB1*0101 (DR1)) of the same molecule?
The DR1 binding data was 0.0640.

What about the DR3 binding data (DRB1*0301 (DR3)) of the same molecule?
Its DR3 binding data is -0.0043.

And the DR4w4 binding data (DRB1*0401 (DR4w4))?
Its DR4w4 binding data is 0.0110.

What about the DR4w15 binding data (DRB1*0405 (DR4w15)) of the same molecule?
Its DR4w15 binding data is -0.0030.

And the DR5w12 binding data (DRB1*1201 (DR5w12))?
Its DR5w12 binding data is 0.0410.

And the DR2w2β1 binding data (DRB1*1501 (DR2w2β1))?
Its DR2w2β1 binding data is 0.7100.

What about the DR2w2β2 binding data (DRB5*0101 (DR2w2β2)) of the same molecule?
Its DR2w2β2 binding data is 0.0070.

With CC[C@H](C)[C@H](NC(=O)[C@H](Cc1c[nH]cn1)NC(=O)[C@H](Cc1ccccc1)NC(=O)[C@@H](NC(=O)[C@H](CC(C)C)NC(=O)[C@@H](N)CC(C)C)[C@@H](C)CC)C(=O)N[C@@H](CC(N)=O)C(=O)NCC(=O)N[C@@H](CCCCN)C(=O)N[C@H](C(=O)N[C@H](C(=O)N[C@@H](CCCCN)C(=O)N[C@@H](CC(N)=O)C(=O)N[C@@H](CO)C(=O)N[C@@H](CCC(=O)O)C(=O)O)[C@@H](C)CC)[C@@H](C)CC [Peptide 27.0402] as the molecule, how does the “Alleles bound (DR3)” value (DRB1*0301 (DR3); binding to DR3, Table XXXIV) read?
Its value is “DR3”.

And the IC50 (DRB1*0901 (DR9))?
The IC50 was 500 nM.

And the IC50 (DRB5*0101 (DR2w2β2))?
The IC50 was 80 nM.

With FHINGKIIK as the molecule, how does the DR1 binding information (DRB1*0101 (DR1); [1]) read?
The DR1 binding information was 0.5700.

What about the DR3 binding information (DRB1*0301 (DR3); [1]) of the same molecule?
Its DR3 binding information is 0.5300.

What about the DR4w4 binding information (DRB1*0401 (DR4w4); [1]) of the same molecule?
The DR4w4 binding information was 0.0060.

And the DR4w15 binding information (DRB1*0405 (DR4w15); [1])?
Its DR4w15 binding information is -0.0030.

And the DR7 binding information (DRB1*0701 (DR7))?
Its DR7 binding information is 0.1300.

What about the DR8w2 binding information (DRB1*0802 (DR8w2)) of the same molecule?
Its DR8w2 binding information is 0.1400.

What about the DR9 binding information (DRB1*0901 (DR9)) of the same molecule?
Its DR9 binding information is 0.1500.

And the DR5w12 binding information (DRB1*1201 (DR5w12); [1])?
The DR5w12 binding information was 0.0230.

What about the DR6w19 binding information (DRB1*1302 (DR6w19); [1]) of the same molecule?
Its DR6w19 binding information is 0.0330.

What about the DR2w2β1 binding information (DRB1*1501 (DR2w2β1); [1]) of the same molecule?
Its DR2w2β1 binding information is 0.2900.

And the DR2w2β2 binding information (DRB5*0101 (DR2w2β2))?
Its DR2w2β2 binding information is 0.2500.

From patent US20160193316A1 (priority 1994, published 2016)
